From ChEMBL document CHEMBL1135638, “Synthesis, molecular modeling studies, and pharmacological activity of selective A(1) receptor antagonists” (J Med Chem, 2002)

Tests used:
[1] = test system: Adenosine receptor A3 (Bos taurus); assay: Percent inhibition of [125I]AB-MECA binding to Adenosine A3 receptor in bovine cortical membranes at 10 uM
[2] = test system: Adenosine receptor A2a (Bos taurus); assay: Percent inhibition of specific [3H]-CGS-21,680 binding to adenosine A2A receptors in bovine cortical membranes at 10 uM concentration

inhibition [1] [%]	inhibition [2] [%]	Structure (SMILES)
0	–	CCOC(=O)c1cnc2c(cnn2CC(Cl)c2ccccc2)c1N1CCCC1 (configuration not stated)
–	15	CCOCCNc1c(C(=O)OCC)cnc2c1cnn2CC(Cl)COc1ccccc1 (configuration not stated)
